Reference: patent US9359313B2, “Use of metformin in combination with a glucokinase activator and compositions comprising metformin and a glucokinase activator” (vTv Therapeutics LLC, priority 2010, dated 2016)

Assay: Pharmacokinetic evaluation of three oral UD1 dosage forms in male beagle dogs
Assay type: in vivo
Settings: 100 mg of UD1
Protocol: For all nine dogs, 100 mg of UD1 was administered orally. Each dog was dosed in a fasted state, where food was provided 4 hours following dosing. Blood samples were taken for pharmacokinetic (PK) evaluation at the following time intervals following dosing: 0.5, 1.0, 2.0, 4.0, 6.0, 8.0, 12.0, and 24.0 hours.

With `CCCO[C@H]1CC[C@H](N(C(=O)Nc2ncc(SCC(=O)O)s2)C2CCCCC2)CC1.CN(C)C(=N)NC(=N)N` [Metformin Salt, 1,1-dimethylbiguanide salt of {2-[3-cyclohexyl-3-(trans-4-propoxy-cyclohexyl)-ureido]-thiazol-5-ylsulfanyl}-acetic acid] as the compound, how does the “PK parameters compared with capsule and tablet” value read?
The value was “improved PK parameters”.
